# Test results: PMC10952582, “Pregnenolone sulfate analogues differentially modulate GABAA receptor closed/desensitised states” (British Journal of Pharmacology, 2023)
# The chains behind the UniProt entries cited, without tags or fusion partners. Residues count along the entry.
# UniProt P62812, 28-455 limits assumed: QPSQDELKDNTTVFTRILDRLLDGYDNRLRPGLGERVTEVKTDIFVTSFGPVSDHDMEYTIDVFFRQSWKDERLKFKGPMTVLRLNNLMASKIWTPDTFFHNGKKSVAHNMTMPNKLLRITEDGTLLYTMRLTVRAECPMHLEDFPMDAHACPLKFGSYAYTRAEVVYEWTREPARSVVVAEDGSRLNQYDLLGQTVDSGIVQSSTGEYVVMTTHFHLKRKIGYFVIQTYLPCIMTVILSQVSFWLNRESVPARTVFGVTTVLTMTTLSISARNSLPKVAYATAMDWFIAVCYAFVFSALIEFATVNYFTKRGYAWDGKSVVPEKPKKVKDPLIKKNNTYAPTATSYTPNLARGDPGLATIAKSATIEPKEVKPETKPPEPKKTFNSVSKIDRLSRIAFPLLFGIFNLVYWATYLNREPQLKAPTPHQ
# UniProt P63080, 26-473 partner limits assumed: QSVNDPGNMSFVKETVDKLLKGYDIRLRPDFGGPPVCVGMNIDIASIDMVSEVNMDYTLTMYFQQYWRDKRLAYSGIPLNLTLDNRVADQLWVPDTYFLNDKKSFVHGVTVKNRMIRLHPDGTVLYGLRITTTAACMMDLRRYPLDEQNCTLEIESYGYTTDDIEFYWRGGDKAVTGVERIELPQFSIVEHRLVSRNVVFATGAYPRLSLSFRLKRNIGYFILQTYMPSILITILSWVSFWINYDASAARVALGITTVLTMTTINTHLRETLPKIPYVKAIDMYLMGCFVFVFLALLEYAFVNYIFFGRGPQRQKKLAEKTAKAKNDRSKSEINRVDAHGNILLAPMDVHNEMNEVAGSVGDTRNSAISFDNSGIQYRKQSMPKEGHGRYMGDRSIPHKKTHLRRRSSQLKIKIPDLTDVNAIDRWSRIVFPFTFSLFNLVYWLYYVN
# UniProt P22723, 39-474 partner limits assumed: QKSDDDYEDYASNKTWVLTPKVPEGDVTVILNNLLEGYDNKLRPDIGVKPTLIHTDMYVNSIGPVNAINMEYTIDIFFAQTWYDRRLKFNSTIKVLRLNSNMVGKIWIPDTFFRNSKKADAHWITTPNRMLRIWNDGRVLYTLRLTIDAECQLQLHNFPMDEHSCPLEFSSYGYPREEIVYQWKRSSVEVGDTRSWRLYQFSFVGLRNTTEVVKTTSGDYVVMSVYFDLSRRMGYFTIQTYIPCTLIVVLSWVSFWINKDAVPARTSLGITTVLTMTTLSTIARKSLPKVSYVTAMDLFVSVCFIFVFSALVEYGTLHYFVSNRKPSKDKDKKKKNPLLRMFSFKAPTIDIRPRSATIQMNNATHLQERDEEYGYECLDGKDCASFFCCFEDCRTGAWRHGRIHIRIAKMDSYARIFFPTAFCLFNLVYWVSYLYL
# pIC50: −log10 of the molar value. Read-outs that look alike come from different tables or passages of the source.
# Target: α1β3γ2L GABAAR (Mus musculus, UniProt P62812)
# Test: Whole-cell voltage-clamp electrophysiology, wild-type α1β3γ2L GABAARs expressed in HEK cells
# Type: cell-based, murine
# Settings: for mean (weighted) decay time (τw) of GABA current: 1 nM PS analogue
# [1] = GABA current after 20 s of 30 μM GABA (near steady state)
# [2] = potency for reducing GABA current weighted decay time constant, 30 μM GABA
# [3] = read-out: Decay inhibition (IC50), potency for reducing GABA current weighted decay time constant, 30 μM GABA
# [4] = read-out: Steady-state inhibition (IC50), GABA current after 20 s of 30 μM GABA (near steady state)
Structure (SMILES),mean (weighted) decay time (τw) of GABA current (30 μM GABA) [s],Steady-state inhibition (pIC50) [1],Decay inhibition (pIC50) [2],pIC50 [3],"pIC50 (read-out: Peak inhibition (IC50), peak current evoked by 30 μM GABA, estimated by graphical extrapolation or not measurable)",pIC50 [4],"Peak inhibition (pIC50) (peak current evoked by 30 μM GABA, analogue pre-applied 10–12 s and co-applied)","pIC50 (read-out: Peak inhibition (IC50), peak current evoked by 30 μM GABA, analogue pre-applied 10–12 s and co-applied)"
C[C@]12CC[C@H]3[C@@H](CC=C4C[C@@H](OS(=O)(=O)O)CC[C@@]43C)[C@@H]1CC[C@@H]2C(=O)CN1CCCCC1,3.7 ± 0.3,5.265 ± 0.085,3.663 ± 0.186,3.66,< 2.70,5.27,–,–
C[C@]12CC[C@H]3[C@@H](CC=C4C[C@@H](OS(=O)(=O)O)CC[C@@]43C)[C@@H]1CC[C@@H]2C(=O)Cn1cnc2ccccc21,3.8 ± 0.2,6.391 ± 0.038,5.142 ± 0.087,5.14,–,6.39,4.327 ± 0.128,4.33
